Source: patent US20230158025A1 (UNIVERSITY OF UTAH RESEARCH FOUNDATION, priority 2020, published 2023)
pIC50: −log10 of the molar value. Like-named read-outs stand apart in the source and are kept apart here.

Sequences of proteins named here, by UniProt entry; tags and fusion partners are left off.
UniProt Q9R0N0, whole entry: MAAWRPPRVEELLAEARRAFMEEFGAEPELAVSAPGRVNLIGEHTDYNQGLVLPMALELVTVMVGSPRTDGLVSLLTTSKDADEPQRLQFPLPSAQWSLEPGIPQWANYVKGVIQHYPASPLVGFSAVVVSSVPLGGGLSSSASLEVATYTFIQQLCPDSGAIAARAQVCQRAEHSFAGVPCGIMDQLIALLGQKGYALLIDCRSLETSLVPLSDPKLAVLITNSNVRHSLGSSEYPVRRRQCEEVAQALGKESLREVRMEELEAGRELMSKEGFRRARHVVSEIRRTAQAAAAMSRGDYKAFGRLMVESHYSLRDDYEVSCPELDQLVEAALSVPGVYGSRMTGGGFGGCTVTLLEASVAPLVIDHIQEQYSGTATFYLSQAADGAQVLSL
UniProt P51570, whole entry: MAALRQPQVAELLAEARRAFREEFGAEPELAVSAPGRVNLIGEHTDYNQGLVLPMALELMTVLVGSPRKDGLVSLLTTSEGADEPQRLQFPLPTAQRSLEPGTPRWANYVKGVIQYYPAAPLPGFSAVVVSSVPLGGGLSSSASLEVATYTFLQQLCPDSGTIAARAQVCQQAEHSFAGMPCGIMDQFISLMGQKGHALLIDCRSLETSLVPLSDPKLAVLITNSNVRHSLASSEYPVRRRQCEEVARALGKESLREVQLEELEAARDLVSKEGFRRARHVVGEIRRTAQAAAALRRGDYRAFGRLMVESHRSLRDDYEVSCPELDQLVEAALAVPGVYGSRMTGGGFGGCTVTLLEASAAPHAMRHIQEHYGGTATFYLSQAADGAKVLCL

Tests used:
[1] = molecular target: recombinant mouse GALK1 (Mus musculus, UniProt Q9R0N0); assay: mGALK1 biochemical activity assay (Kinase-Glo Plus, ATP depletion)
[2] = molecular target: recombinant human GALK1 (Homo sapiens, UniProt P51570); assay: hGALK1 biochemical activity assay (Kinase-Glo Plus, ATP depletion)
[3] = rat microsomal stability (RLM); type: in vitro ADME; conditions: microsomal stability half-life
[4] = PAMPA permeability; type: in vitro ADME
[5] = aqueous kinetic solubility; type: physicochemical

pIC50 ([1]; read-out: mGALK IC50, Tables 2-15, 35 μM ATP, 100 μM galactose, 1 h, bracketed figure after some values is undefined and not reported): 4.86
pIC50 ([1]; read-out: mGALK, recombinant mouse GALK1, Kinase-Glo Plus ATP depletion): 4.86
pIC50 ([2]; read-out: hGALK IC50, Tables 2-15, 35 μM ATP, 100 μM galactose, 1 h, bracketed figure after some values (e.g. −1.2) is undefined and not reported): 5.26
pIC50 ([2]; read-out: hGALK, recombinant human GALK1, Kinase-Glo Plus ATP depletion): 5.26
Metab. Stabil. (m) [3]: >30 m
Perm. (1 × 10^−6 cm/sec) [4]: <4.2 1 × 10^−6 cm/sec
Sol. [5]: <1 µg/mL
SMILES: CC1=C(C(=O)Nc2ccc3nc(C)sc3c2)C(c2ccccc2Cl)N=C(Nc2nc3ccccc3o2)N1 (stereo not shown)
